Reference: patent publication US7632952B2, “Benzothiazoles and the use thereof as medicaments” (Aventis Pharma S.A., priority 2004, dated 2009)

The chains behind the UniProt entries cited, without tags or fusion partners.
UniProt P11802, whole entry: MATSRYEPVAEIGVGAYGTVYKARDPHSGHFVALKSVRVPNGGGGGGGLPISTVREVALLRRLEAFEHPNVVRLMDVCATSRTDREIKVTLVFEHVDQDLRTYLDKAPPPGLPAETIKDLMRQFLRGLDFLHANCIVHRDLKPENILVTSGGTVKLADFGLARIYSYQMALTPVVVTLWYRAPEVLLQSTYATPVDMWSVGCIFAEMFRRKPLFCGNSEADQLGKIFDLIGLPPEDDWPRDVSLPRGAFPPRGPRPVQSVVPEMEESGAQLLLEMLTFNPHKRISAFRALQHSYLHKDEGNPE
UniProt P24385, whole entry partner: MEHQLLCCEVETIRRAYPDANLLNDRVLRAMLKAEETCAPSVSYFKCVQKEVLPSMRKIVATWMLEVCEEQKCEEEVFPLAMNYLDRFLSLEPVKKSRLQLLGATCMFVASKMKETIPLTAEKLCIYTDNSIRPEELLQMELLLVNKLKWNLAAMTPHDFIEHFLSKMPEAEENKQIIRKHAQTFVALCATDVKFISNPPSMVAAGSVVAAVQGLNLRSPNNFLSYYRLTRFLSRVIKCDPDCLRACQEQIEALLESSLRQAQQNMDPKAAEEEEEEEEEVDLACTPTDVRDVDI

Biological target: CDK4/cyclin D1 (Homo sapiens, UniProt P11802)
Assay: CDK4/cyclin D1 Flashplate test in 96-well format
Conditions: read-out: CDK4 IC50; tested form: hydrochloride
Description: 2. CDK4/cyclin D1 Protocol:
Purification of the CDK4-HA/cyclin D1-(His)6 Complex by IMAC (Immobilized Metal Affinity Chromatography):
Two recombinant baculoviruses bearing the human sequences coding, respectively, for CDK4-HA (C-terminal fusion with the hemaglutinin tag) and for cyclin D1-(His)6 are used to coinfect insect Sf9 cells. Sixty hours after the start of the coinfection, the cells are harvested by centrifugation and then frozen at −20° C. until the time of use. After thawing in buffer A (HEPES 200 mM pH 7.0, NaCl 50 mM, MgCl22 mM, imidazole 25 mM, TCEP 1 mM, glycerol 10% (p/v), NaF 1 mM, Na3VO4 1 mM), stirring for 1 hour at 4° C. and centrifugation, the complex present in the lysis supernatant is purified by affinity chromatography on nickel (IMAC) and stored at −80° C.
CDK4/cyclin D1 Flashplate Test in 96-Well Format
A test in 96-well “Flashplate” plates coated with streptavidin is used to evaluate the inhibition of the CDK4/cyclin D1 kinase complex by the products of the invention. […]
After addition of all the reagents, the test plate is incubated at 30° C. with orbital stirring at 650 rpm. […] The incorporation of ^33P into the substrate peptide is quantified by scintillation counting using a Packard Topcount.NXT machine. […]

## NCCCCCCCC(=O)Nc1nc2ccc(OS(=O)(=O)c3ccc(NCCCn4ccnc4)cc3)cc2s1
  IC50: 609 nM
